Key:
[1] = target: T1, CETP (Homo sapiens, UniProt P11597); assay: Assay of CETP Inhibition Using Purified Components (Reconstituted Buffer Assay); assay type: biochemical
[2] = target: T1, CETP; assay: Assay of CETP Inhibition in Human Plasma; assay type: biochemical; settings: read-out: IC50 Inhibition of CETP Activity in Human Plasma Assay; human EDTA plasma pool, [3H]CE-HDL, 37° C., 4 hours

Chains of the proteins cited; added tags and fusions are not shown. Residues count along the entry.
UniProt P11597, 18-493 limits assumed: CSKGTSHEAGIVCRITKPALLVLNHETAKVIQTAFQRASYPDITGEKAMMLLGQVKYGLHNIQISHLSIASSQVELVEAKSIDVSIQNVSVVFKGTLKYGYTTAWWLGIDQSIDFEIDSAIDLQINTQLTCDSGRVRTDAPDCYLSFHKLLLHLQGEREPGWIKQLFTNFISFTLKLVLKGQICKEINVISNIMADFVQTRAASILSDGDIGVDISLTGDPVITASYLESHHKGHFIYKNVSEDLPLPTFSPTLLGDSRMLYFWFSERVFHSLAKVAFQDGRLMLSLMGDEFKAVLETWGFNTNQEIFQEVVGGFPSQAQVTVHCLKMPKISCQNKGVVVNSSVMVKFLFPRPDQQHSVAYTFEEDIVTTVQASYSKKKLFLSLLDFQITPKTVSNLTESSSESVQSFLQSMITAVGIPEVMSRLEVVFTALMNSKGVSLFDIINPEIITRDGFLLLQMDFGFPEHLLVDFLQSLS

Row | IC50 [1] | IC50 [2] | Compound
1 | > 50 µM | – | O[C@H](CNCc1cccc(OC(F)(F)F)c1)C(F)(F)F
2 | 3.2 µM | – | O[C@H](CN(Cc1cccc(OC(F)(F)F)c1)c1cccc(Br)c1)C(F)(F)F
3 | 0.066 µM | 2 µM | CC(C)Oc1cccc(N(Cc2cccc(OC(F)(F)C(F)F)c2)C[C@@H](O)C(F)(F)F)c1
